Consider 1 molecule from publication PMC12728655, “Engineering an Artificial Myxopyronin Derivative with Enhanced Metabolic Stability via Mutasynthesis” (JACS Au, 2025).

The test has as its system M. xanthus DK1622 CP-4^W S91A mutant. As to the kind of experiment: Mutasynthon supplementation of producer strain. Particulars: supplementation at the tested concentrations; MYX A production diminished completely.

SMILES strings stand for the structures.

On to `CCC/C(C)=C/C=C(\C)C(=O)Sc1ccccc1` [compound 48], for which the “toxicity to the strain” value is listed as “exhibited toxicity to the strain”.
